Binding of CDR-mutated scFvs to a peptide of the spike HR2 region

Antigen: PDVDLGDISGINAS, a 14-residue peptide of the SARS-CoV-2 spike HR2 region.

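The starting antibody came from a phage panning campaign against this peptide. Library AAYL51 holds single substitutions and randomly drawn double and triple substitutions in the CDRs. The assay is AlphaSeq: two haploid yeast populations carry antibody and antigen on their surface. Pairs that bind mate more often; barcode pairs of the diploids are counted by sequencing. Each replicate has its own calibration line, from reference interactions of the BCL2 family. There are three technical replicates.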

Parent: Ab-91, a human scFv built as VL, a 15-residue (Gly4Ser)3 linker, VH. Only the CDRs of the heavy chain vary.
VL: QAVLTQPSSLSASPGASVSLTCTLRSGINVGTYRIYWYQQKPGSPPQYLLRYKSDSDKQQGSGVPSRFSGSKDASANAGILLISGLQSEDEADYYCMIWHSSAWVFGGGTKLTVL
VH: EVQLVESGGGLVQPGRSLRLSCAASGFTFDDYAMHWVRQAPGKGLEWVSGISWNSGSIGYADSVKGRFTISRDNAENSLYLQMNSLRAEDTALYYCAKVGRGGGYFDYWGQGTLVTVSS

Changes read parent residue, position, new residue, counted from the first residue of the VH shown.
The read-out is the apparent dissociation constant on a log10 scale (nM): the lower, the stronger.
An entry "n.d." has no value in the source: the pair was not observed among the diploids in that replicate. This suggests poor binding but is not conclusive.
Parent in this assay: reference entry 1.86, copy in this library 0.88.

changes | log10 Kd, replicates | empty controls
S52K S57T A61V | n.d. n.d. 2.41 | 2 of 9 (4.16)
T28D S55Y I58W | 4.53 n.d. 5.04 | 4 of 9 (4.28)
D30T N54A A61E | n.d. n.d. n.d. | 2 of 9 (4.64)
D31Y M34Q G102Y | n.d. n.d. n.d. | 0 of 9
D30R A33D G50M | n.d. n.d. n.d. | 1 of 9 (3.58)
Y32N K65F G102S | n.d. n.d. 4.18 | 3 of 9 (3.81)
D62T V99C Y108K | n.d. n.d. n.d. | 1 of 9 (3.75)
G50F D107W | n.d. n.d. n.d. | 1 of 9 (4.29)
F29H S55P F106L | 5.49 4.46 n.d. | 3 of 9 (5.15)
M34E G100L D107C | n.d. n.d. n.d. | 0 of 9
Y60T V64S G102D | 5.14 n.d. n.d. | 3 of 9 (4.59)
D31T G50V Y108N | n.d. n.d. n.d. | 0 of 9
W53T K65V V99S | n.d. 5.60 3.93 | 3 of 9 (4.34)
D30W N54S S55H | n.d. 5.32 n.d. | 0 of 9
A33K S52G N54C | n.d. n.d. n.d. | 2 of 9 (4.57)
D30G D31A G56H | 1.22 1.29 0.85 | 3 of 9 (4.75)
F29W V64Q | 4.88 n.d. n.d. | 3 of 9 (4.64)
S52F R101N Y105I | n.d. n.d. n.d. | 0 of 9
N54M S55F Y105W | 4.58 4.41 n.d. | 5 of 9 (4.64)
G59Y A61N Y108E | n.d. 4.01 4.43 | 4 of 9 (4.50)
T28G D30W M34C | 4.09 n.d. 3.21 | 0 of 9
F27D I51Q G102S | 4.25 5.22 5.25 | 7 of 9 (4.86)
G50C D62M G104Q | n.d. n.d. n.d. | 1 of 9 (3.84)
I58D Y105Q | n.d. 3.08 2.94 | 1 of 9 (4.86)
A33W R101G Y108W | n.d. n.d. n.d. | 5 of 9 (4.30)
D30M G50D V99C | 3.79 5.71 n.d. | 2 of 9 (4.64)
F27G V64P G104W | n.d. n.d. n.d. | 1 of 9 (3.04)
D31M G102E Y108I | n.d. n.d. n.d. | 2 of 9 (3.45)
T28K R101P Y105F | 1.41 1.55 0.68 | 1 of 9 (4.87)
G56H V64P Y108A | 3.09 n.d. 3.00 | 2 of 9 (2.99)
S52H I58S V99G | n.d. n.d. 3.00 | 0 of 9
A33E M34D H35Y | n.d. n.d. n.d. | 0 of 9
G102R G103A D107R | n.d. n.d. n.d. | 0 of 9
M34A N54I A61V | 4.69 n.d. 5.57 | 4 of 9 (4.25)
N54V G56C G104K | n.d. 5.71 4.23 | 2 of 9 (4.40)
S55E K65Y | 1.88 1.97 1.48 | 3 of 9 (4.60)
G26F V99T D107E | n.d. n.d. n.d. | 0 of 9
T28L D31V D107A | n.d. n.d. n.d. | 1 of 9 (3.80)

A selection of 5 entries from above:

changes,"log10 Kd, replicates",empty controls
F29W V64Q,4.88 n.d. n.d.,3 of 9 (4.64)
T28D S55Y I58W,4.53 n.d. 5.04,4 of 9 (4.28)
D62T V99C Y108K,n.d. n.d. n.d.,1 of 9 (3.75)
F29H S55P F106L,5.49 4.46 n.d.,3 of 9 (5.15)
S52F R101N Y105I,n.d. n.d. n.d.,0 of 9

Three control strains display no target. For library AAYL51, 21% of the pairings with them gave a signal, with a median of 4.54 and one signal in twenty below 3.26, so weak values seen in few replicates may be background. The control count says in how many pairings with the empty strains this scFv gave a signal, with their mean in brackets.

Values reported by Engelhart et al. 2022, doi:10.1038/s41597-022-01779-4 (FLAb copy).